The entries are a selection whose mix differs from that of the whole data set. Some of these compounds have results that are not shown, active ones among them. Results filed as inconclusive are left out. Active and inactive are the calls of the source. The call rests on the fitted dose curve.
On the % scale 0 is the no-effect control and ±100 the full control effect.

The target of this assay is Polyprotein P1234 (Chikungunya virus (strain S27-African prototype)) (UniProt Q8JUX6). Nature of the assay: Primary qHTS for inhibitors of NSP2Pro chikungunya virus (CHIKV). Further: nearly all actives have a fitted effect of over 60% in size. The note with it: FRET peptide cleavage, fluorescence 1 h; at 24.9 µM (top of the series). For orientation: qHTS replaces the single test concentration by a dilution series.
On to `CN(C)C1(CNC(=O)c2ccccc2F)CCCCC1`, for which the activity change, negative = inhibition was inactive: 29.8%. For `CN(C)C1(CNC(=O)c2cccc(Cl)c2)CCCCC1`, the activity change, negative = inhibition was inactive: 2.33%. As for `O=C(C1CCC1)N1CCN(C/C=C/c2ccccc2)CC1`, the activity change, negative = inhibition is inactive: -0.384%.

With `CCOc1cccc(C(=O)NCC2(N(C)C)CCCCC2)c1`, the activity change, negative = inhibition was inactive: -7.79%. Consider `CCCCOc1ccccc1C(=O)NCC1(N(C)C)CCCCC1`, for which the activity change, negative = inhibition was inactive: -15%. The same measure for `CN(C)C1(CNC(=O)c2ccccc2[N+](=O)[O-])CCCCC1`: inactive: -15%; for `COc1ccc(C(=O)NCC2(N(C)C)CCCCC2)cc1Cl`: inactive: 0.528%.

Consider `CC(C)Oc1ccc(C(=O)NCC2(N(C)C)CCCCC2)cc1`, for which the activity change, negative = inhibition was inactive: 25.1%. On to `COc1cc(C(=O)NCC2(N(C)C)CCCCC2)cc(OC)c1OC`, for which the activity change, negative = inhibition is inactive: 24.2%. The same measure for `Cc1cccc(C(=O)NCC2(N(C)C)CCCCC2)c1`: inactive: -4.15%; for `CC(C)COc1ccc(C(=O)NCC2(N(C)C)CCCCC2)cc1`: inactive: 4.29%. As for `COc1cccc(C(=O)NCC2(N3CCOCC3)CCCCC2)c1`, the activity change, negative = inhibition is inactive: -17.2%.

Values taken from PubChem BioAssay AID1964107 (National Center for Advancing Translational Sciences (NCATS), 2024).
